Results as given in ChEMBL document CHEMBL4417631, “Oral peptide inhibitors of interleukin-23 receptor and their use to treat inflammatory bowel diseases” (2017).

Molecular target: T1, Interleukin-23 receptor (Homo sapiens, UniProt Q5VWK5)
T1 sequence (Q5VWK5 whole entry): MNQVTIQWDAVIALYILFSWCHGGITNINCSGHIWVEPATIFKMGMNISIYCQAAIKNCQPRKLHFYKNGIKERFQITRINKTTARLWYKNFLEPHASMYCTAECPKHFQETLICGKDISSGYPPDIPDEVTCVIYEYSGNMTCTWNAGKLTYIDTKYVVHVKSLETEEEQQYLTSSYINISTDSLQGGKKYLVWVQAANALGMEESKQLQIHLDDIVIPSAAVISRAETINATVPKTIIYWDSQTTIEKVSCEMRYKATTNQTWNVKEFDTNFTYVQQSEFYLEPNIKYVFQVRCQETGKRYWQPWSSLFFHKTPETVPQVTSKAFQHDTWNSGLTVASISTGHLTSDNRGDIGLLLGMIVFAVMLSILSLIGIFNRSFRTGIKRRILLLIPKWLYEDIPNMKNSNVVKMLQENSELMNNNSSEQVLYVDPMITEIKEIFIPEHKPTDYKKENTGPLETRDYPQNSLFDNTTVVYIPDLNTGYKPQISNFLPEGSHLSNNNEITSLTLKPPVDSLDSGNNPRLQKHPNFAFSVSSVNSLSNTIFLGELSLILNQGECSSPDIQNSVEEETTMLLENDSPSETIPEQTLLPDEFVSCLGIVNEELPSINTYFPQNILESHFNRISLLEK
Assay: Inhibition of interleukin-23 binding to human interleukin-23 receptor incubated for 2 hrs by competitive binding ELISA

Structure (SMILES) | IC50 [nM]
CC(=O)N[C@@H](CS)C(=O)N[C@@H](CCC(N)=O)C(=O)N[C@H](C(=O)N[C@@H](Cc1c[nH]c2ccccc12)C(=O)N[C@@H](CCC(N)=O)C(=O)N[C@@H](CS)C(=O)N[C@@H](Cc1ccc(O)cc1)C(=O)N[C@@H](Cc1c[nH]c2ccccc12)C(=O)N[C@@H](CCC(C)C)C(=O)N1CCC[C@H]1C(=O)N[C@@H](CC(N)=O)C(=O)NCC(N)=O)[C@@H](C)O | 4830
CC(=O)N[C@@H](CS)C(=O)N[C@@H](CCCNC(=N)N)C(=O)N[C@H](C(=O)N[C@@H](Cc1c[nH]c2ccccc12)C(=O)N[C@@H](CCC(N)=O)C(=O)N[C@@H](CS)C(=O)N[C@@H](Cc1ccc(O)cc1)C(=O)N[C@@H](Cc1c[nH]c2ccccc12)C(=O)N[C@@H](CCC(N)=O)C(=O)N[C@@H](CCC(=O)O)C(=O)N[C@@H](CCCCN)C(=O)NCC(=O)N[C@H](C(=O)N[C@@H](CC(=O)O)C(N)=O)[C@@H](C)O)[C@@H](C)O | 118
CC(=O)N[C@@H](CS)C(=O)N[C@@H](CCC(N)=O)C(=O)N[C@H](C(=O)N[C@@H](Cc1c[nH]c2ccccc12)C(=O)N[C@@H](CCC(N)=O)C(=O)N[C@@H](CS)C(=O)N[C@@H](Cc1ccc(O)cc1)C(=O)N[C@@H](Cc1c[nH]c2ccccc12)C(=O)N[C@@H](CCCNC(=N)N)C(=O)N[C@H](CC(=O)N[C@@H](CC(N)=O)C(=O)NCC(=O)NCCOCC(=O)N[C@H](CCCCN)C(N)=O)CC(C)C)[C@@H](C)O | 224
CC(=O)N[C@@H](CS)C(=O)N[C@@H](CCC(N)=O)C(=O)N[C@H](C(=O)N[C@@H](Cc1c[nH]c2ccccc12)C(=O)N[C@@H](CCC(N)=O)C(=O)N[C@@H](CS)C(=O)N[C@@H](Cc1ccc(O)cc1)C(=O)N[C@@H](Cc1c[nH]c2ccccc12)C(=O)N[C@@H](CCC(C)C)C(=O)N[C@@H](CCC(=O)O)C(=O)N[C@@H](CC(N)=O)C(=O)NCC(=O)N[C@@H](CC(C)C)C(N)=O)[C@@H](C)O | 174
CC(=O)N[C@@H](CS)C(=O)N[C@@H](CCC(N)=O)C(=O)N[C@H](C(=O)N[C@@H](Cc1c[nH]c2ccccc12)C(=O)N[C@@H](CCC(N)=O)C(=O)N[C@@H](CS)C(=O)N[C@@H](Cc1ccc(O)cc1)C(=O)N[C@@H](Cc1c[nH]c2ccccc12)C(=O)N[C@@H](CCCNC(=N)N)C(=O)N[C@H](CC(=O)N[C@H](C(=O)N[C@@H](CC(N)=O)C(=O)NCC(=O)NCCOCC(=O)N[C@H](CCCCN)C(N)=O)C(C)C)CC(C)C)[C@@H](C)O | 311
CC(=O)N[C@@H](CS)C(=O)N[C@@H](CCC(N)=O)C(=O)N[C@H](C(=O)N[C@@H](Cc1c[nH]c2ccccc12)C(=O)N[C@@H](CCC(N)=O)C(=O)N[C@@H](CS)C(=O)N[C@@H](Cc1ccc(O)cc1)C(=O)N[C@@H](Cc1c[nH]c2ccccc12)C(=O)N[C@@H](CCCNC(=N)N)C(=O)N[C@H](CC(=O)N[C@H](C(=O)N[C@@H](CC(N)=O)C(=O)NCC(=O)NCCOCC(=O)N[C@H](CCCCN)C(N)=O)C(C)C)C(C)C)[C@@H](C)O | 501
CC(=O)N[C@@H](CS)C(=O)N[C@@H](CCC(N)=O)C(=O)N[C@H](C(=O)N[C@@H](Cc1c[nH]c2ccccc12)C(=O)N[C@@H](CCC(N)=O)C(=O)N[C@@H](CS)C(=O)N[C@@H](Cc1ccc(O)cc1)C(=O)N[C@@H](Cc1c[nH]c2ccccc12)C(=O)N[C@@H](CCC(C)C)C(=O)N[C@H](C(=O)N[C@@H](CC(N)=O)C(=O)NCC(N)=O)[C@@H](C)O)[C@@H](C)O | 109
CC(=O)N[C@@H](CS)C(=O)N[C@@H](CCC(N)=O)C(=O)N[C@H](C(=O)N[C@@H](Cc1c[nH]c2ccccc12)C(=O)N[C@@H](CCC(N)=O)C(=O)N[C@@H](CS)C(=O)N[C@@H](Cc1ccc(O)cc1)C(=O)N[C@@H](Cc1c[nH]c2ccccc12)C(=O)N[C@@H](CCCNC(=N)N)C(=O)N[C@@H](C)CC(=O)N[C@H](C(=O)N[C@@H](CC(N)=O)C(=O)NCC(=O)NCCOCC(=O)N[C@H](CCCCN)C(N)=O)C(C)C)[C@@H](C)O | 355
CC(=O)N[C@@H](CS)C(=O)N[C@@H](CCC(N)=O)C(=O)N[C@H](C(=O)N[C@@H](Cc1c[nH]c2ccccc12)C(=O)N[C@@H](CCC(N)=O)C(=O)N[C@@H](CS)C(=O)N[C@@H](Cc1ccc(O)cc1)C(=O)N[C@@H](Cc1c[nH]c2ccccc12)C(=O)N[C@@H](CCCNC(=N)N)C(=O)N[C@@H](CC(N)=O)C(=O)N[C@@H](Cc1ccccc1)C(=O)N[C@@H](CCC(=O)O)C(=O)N[C@@H](CO)C(=O)NCC(N)=O)[C@@H](C)O | 315
CC(=O)N[C@@H](CS)C(=O)N[C@@H](CCC(N)=O)C(=O)N[C@H](C(=O)N[C@@H](Cc1c[nH]c2ccccc12)C(=O)N[C@@H](CCC(N)=O)C(=O)N[C@@H](CS)C(=O)N[C@@H](Cc1ccc(O)cc1)C(=O)N[C@@H](Cc1c[nH]c2ccccc12)C(=O)N[C@@H](CCC(C)C)C(=O)N[C@@H](CCC(=O)O)C(=O)N[C@H](C(=O)NCC(N)=O)[C@@H](C)O)[C@@H](C)O | 818
CC(=O)N[C@@H](CS)C(=O)N[C@@H](CCC(N)=O)C(=O)N[C@H](C(=O)N[C@@H](Cc1c[nH]c2ccccc12)C(=O)N[C@@H](CCC(N)=O)C(=O)N[C@@H](CS)C(=O)N[C@@H](Cc1ccc(O)cc1)C(=O)N[C@@H](Cc1c[nH]c2ccccc12)C(=O)N[C@@H](CCCNC(=N)N)C(=O)N[C@@H](C)CC(=O)N[C@@H](CC(N)=O)C(=O)NCC(=O)NCCOCC(=O)N[C@H](CCCCN)C(N)=O)[C@@H](C)O | 457
